Test results from EP4755888A1 (ILAb Co., Ltd., priority 2023, dated 2025).

Amino acid sequences for entries named in this document (tags omitted). Residues count along the entry.
UniProt Q9NZQ7, 19-238 limits assumed: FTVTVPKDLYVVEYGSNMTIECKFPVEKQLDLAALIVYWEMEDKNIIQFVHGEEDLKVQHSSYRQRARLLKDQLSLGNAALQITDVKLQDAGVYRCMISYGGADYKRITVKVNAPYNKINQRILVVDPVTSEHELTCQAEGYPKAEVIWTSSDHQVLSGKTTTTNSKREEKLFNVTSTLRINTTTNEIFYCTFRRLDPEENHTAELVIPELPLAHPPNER

Molecular target: PD-1/PD-L1 (Homo sapiens, UniProt Q9NZQ7)
Assay: TR-FRET PD-1/PD-L1 binding inhibition at the molecular level (free proteins)
Conditions: read-out: FRET assay (IC50), Tag1-PD-L1 and Tag2-PD-1 proteins, twelve concentrations from 200 nM, 2 hours at room temperature, tested form: free base

For `O=C1C[C@@H](CNC2CCCn3nc(C(=O)Nc4cccc(-c5cccc(NC(=O)c6ccc(CNCCO)cn6)c5Cl)c4Cl)cc32)CN1` (stereo partly shown), the IC50 was less than 10 nM.
